From article PMC10295947 (Biomolecules, 2023)

Tested on: C57BL/6J mice
Details: SR-17018 24 mg/kg i.p. 30 or 60 min after morphine; naloxone 2.5 mg/kg i.p. after 60 min

Compound: C=CCN1CC[C@]23c4c5ccc(O)c4O[C@H]2C(=O)CC[C@@]3(O)[C@H]1C5
- Reversal of morphine-induced locomotor activity (given after morphine): fully antagonized morphine-induced locomotor activity
